{
  "source": "patent US12171806B2",
  "about": "“Therapeutic regimens and methods for lowering blood glucose and/or body weight using GLP-1R and GCGR balanced agonists” (priority 2021, dated 2024)",
  "assay": "Phase 1 MAD study of ALT-801: adverse events (TEAEs), safety overview",
  "details": "M3 2.4 mg (N = 11)",
  "data": [
    {"smiles": "CC[C@H](C)[C@H](NC(=O)[C@H](Cc1ccccc1)NC(=O)[C@H](CCC(=O)O)NC(=O)[C@@H]1CCCCNC(=O)CC[C@H](NC(=O)[C@H](CC(=O)O)NC(=O)[C@H](CC(C)C)NC(=O)[C@H](Cc2ccc(O)cc2)NC(=O)[C@H](CCCCN)NC(=O)[C@H](CO)NC(=O)[C@H](Cc2ccc(O)cc2)NC(=O)[C@H](CC(=O)O)NC(=O)[C@H](CO)NC(=O)[C@@H](NC(=O)[C@H](Cc2ccccc2)NC(=O)[C@@H](NC(=O)CNC(=O)[C@H](CCC(N)=O)NC(=O)C(C)(C)NC(=O)[C@@H](N)Cc2c[nH]cn2)[C@@H](C)O)[C@@H](C)O)C(=O)N[C@@H](CCCCNC(=O)[C@H]2O[C@@H](OCCCCCCCCCCCCCCCCCC(=O)O)[C@H](O)[C@@H](O)[C@@H]2O)C(=O)N[C@@H](C)C(=O)N[C@@H](C)C(=O)N1)C(=O)N[C@@H](CCC(N)=O)C(=O)N[C@@H](Cc1c[nH]c2ccccc12)C(=O)N[C@@H](CC(C)C)C(=O)N[C@@H](CC(C)C)C(=O)N[C@@H](CCC(N)=O)C(=O)N[C@H](C(N)=O)[C@@H](C)O", "note": "[ALT-801, pemvidutide]", "values": [
      {"measurement": "TEAE Diarrhoea; PLT; n", "value": 0},
      {"measurement": "TEAE Diarrhoea; Severe; %", "value": "(0.0%)"},
      {"measurement": "TEAE Diarrhoea; Severe; n", "value": 0},
      {"measurement": "TEAE Dyspepsia; Mild; %", "value": "(9.1%)"},
      {"measurement": "TEAE Dyspepsia; Mild; n", "value": 1},
      {"measurement": "TEAE Dyspepsia; Moderate; %", "value": "(0.0%)"},
      {"measurement": "TEAE Dyspepsia; Moderate; n", "value": 0},
      {"measurement": "TEAE Dyspepsia; PLT; %", "value": "(0.0%)"},
      {"measurement": "TEAE Dyspepsia; PLT; n", "value": 0},
      {"measurement": "TEAE Dyspepsia; Severe; %", "value": "(0.0%)"},
      {"measurement": "TEAE Dyspepsia; Severe; n", "value": 0},
      {"measurement": "TEAE Early satiety; Mild; %", "value": "(9.1%)"},
      {"measurement": "TEAE Early satiety; Mild; n", "value": 1},
      {"measurement": "TEAE Early satiety; Moderate; %", "value": "(0.0%)"},
      {"measurement": "TEAE Early satiety; Moderate; n", "value": 0},
      {"measurement": "TEAE Early satiety; PLT; %", "value": "(0.0%)"},
      {"measurement": "TEAE Early satiety; PLT; n", "value": 0},
      {"measurement": "TEAE Early satiety; Severe; %", "value": "(0.0%)"},
      {"measurement": "TEAE Early satiety; Severe; n", "value": 0},
      {"measurement": "TEAE Eye disorders; Mild; %", "value": "(0.0%)"},
      {"measurement": "TEAE Eye disorders; Mild; n", "value": 0},
      {"measurement": "TEAE Eye disorders; Moderate; %", "value": "(0.0%)"},
      {"measurement": "TEAE Eye disorders; Moderate; n", "value": 0},
      {"measurement": "TEAE Eye disorders; PLT; %", "value": "(0.0%)"},
      {"measurement": "TEAE Eye disorders; PLT; n", "value": 0},
      {"measurement": "TEAE Eye disorders; Severe; %", "value": "(0.0%)"},
      {"measurement": "TEAE Eye disorders; Severe; n", "value": 0},
      {"measurement": "TEAE Eye pain; Mild; %", "value": "(0.0%)"},
      {"measurement": "TEAE Eye pain; Mild; n", "value": 0},
      {"measurement": "TEAE Eye pain; Moderate; %", "value": "(0.0%)"},
      {"measurement": "TEAE Eye pain; Moderate; n", "value": 0},
      {"measurement": "TEAE Eye pain; PLT; %", "value": "(0.0%)"},
      {"measurement": "TEAE Eye pain; PLT; n", "value": 0},
      {"measurement": "TEAE Eye pain; Severe; %", "value": "(0.0%)"},
      {"measurement": "TEAE Eye pain; Severe; n", "value": 0},
      {"measurement": "TEAE Fatigue; Mild; %", "value": "(0.0%)"},
      {"measurement": "TEAE Fatigue; Mild; n", "value": 0},
      {"measurement": "TEAE Fatigue; Moderate; %", "value": "(0.0%)"},
      {"measurement": "TEAE Fatigue; Moderate; n", "value": 0},
      {"measurement": "TEAE Fatigue; PLT; %", "value": "(0.0%)"},
      {"measurement": "TEAE Fatigue; PLT; n", "value": 0},
      {"measurement": "TEAE Fatigue; Severe; %", "value": "(0.0%)"},
      {"measurement": "TEAE Fatigue; Severe; n", "value": 0},
      {"measurement": "TEAE Food poisoning; Mild; %", "value": "(0.0%)"},
      {"measurement": "TEAE Food poisoning; Mild; n", "value": 0},
      {"measurement": "TEAE Food poisoning; Moderate; %", "value": "(0.0%)"},
      {"measurement": "TEAE Food poisoning; Moderate; n", "value": 0},
      {"measurement": "TEAE Food poisoning; PLT; %", "value": "(0.0%)"},
      {"measurement": "TEAE Food poisoning; PLT; n", "value": 0},
      {"measurement": "TEAE Food poisoning; Severe; %", "value": "(0.0%)"},
      {"measurement": "TEAE Food poisoning; Severe; n", "value": 0},
      {"measurement": "TEAE Fungal infection; Mild; %", "value": "(0.0%)"},
      {"measurement": "TEAE Fungal infection; Mild; n", "value": 0},
      {"measurement": "TEAE Fungal infection; Moderate; %", "value": "(0.0%)"},
      {"measurement": "TEAE Fungal infection; Moderate; n", "value": 0},
      {"measurement": "TEAE Fungal infection; PLT; %", "value": "(0.0%)"},
      {"measurement": "TEAE Fungal infection; PLT; n", "value": 0},
      {"measurement": "TEAE Fungal infection; Severe; %", "value": "(0.0%)"},
      {"measurement": "TEAE Fungal infection; Severe; n", "value": 0},
      {"measurement": "TEAE Fungal skin; Mild; %", "value": "(9.1%)"},
      {"measurement": "TEAE Fungal skin; Mild; n", "value": 1},
      {"measurement": "TEAE Gastrointestinal disorders; Mild; %", "value": "(45.5%)"},
      {"measurement": "TEAE Gastrointestinal disorders; Mild; n", "value": 5},
      {"measurement": "TEAE Gastrointestinal disorders; Moderate; %", "value": "(45.5%)"},
      {"measurement": "TEAE Gastrointestinal disorders; Moderate; n", "value": 5},
      {"measurement": "TEAE Gastrointestinal disorders; PLT; %", "value": "(0.0%)"},
      {"measurement": "TEAE Gastrointestinal disorders; PLT; n", "value": 0},
      {"measurement": "TEAE Gastrointestinal disorders; Severe; %", "value": "(0.0%)"},
      {"measurement": "TEAE Gastrointestinal disorders; Severe; n", "value": 0},
      {"measurement": "TEAE Haematemesis; Mild; %", "value": "(9.1%)"},
      {"measurement": "TEAE Haematemesis; Mild; n", "value": 1},
      {"measurement": "TEAE Haematemesis; Moderate; %", "value": "(0.0%)"},
      {"measurement": "TEAE Haematemesis; Moderate; n", "value": 0},
      {"measurement": "TEAE Haematemesis; PLT; %", "value": "(0.0%)"},
      {"measurement": "TEAE Haematemesis; PLT; n", "value": 0},
      {"measurement": "TEAE Haematemesis; Severe; %", "value": "(0.0%)"},
      {"measurement": "TEAE Haematemesis; Severe; n", "value": 0},
      {"measurement": "TEAE Infections and infestations; Mild; %", "value": "(27.3%)"},
      {"measurement": "TEAE Infections and infestations; Mild; n", "value": 3},
      {"measurement": "TEAE Infections and infestations; Moderate; %", "value": "(0.0%)"},
      {"measurement": "TEAE Infections and infestations; Moderate; n", "value": 0},
      {"measurement": "TEAE Infections and infestations; PLT; %", "value": "(0.0%)"},
      {"measurement": "TEAE Infections and infestations; PLT; n", "value": 0},
      {"measurement": "TEAE Infections and infestations; Severe; %", "value": "(0.0%)"},
      {"measurement": "TEAE Infections and infestations; Severe; n", "value": 0},
      {"measurement": "TEAE Injection site bruising; Mild; %", "value": "(9.1%)"},
      {"measurement": "TEAE Injection site bruising; Mild; n", "value": 1},
      {"measurement": "TEAE Injection site bruising; Moderate; %", "value": "(0.0%)"},
      {"measurement": "TEAE Injection site bruising; Moderate; n", "value": 0},
      {"measurement": "TEAE Injection site bruising; PLT; %", "value": "(0.0%)"}
    ]}
  ]
}
